Source: patent US9585929B2 (ZHEJIANG KANGLAITE GROUP CO., LTD., priority 2014, dated 2017)

System: MDA-MB-435 human breast cancer
Assay: MDA-MB-435 human breast cancer model in nude mice
Type: in vivo, BALB/C nude mice
Conditions: Paclitaxel 50 mg/kg ip × 1
Description: The injection of the invention (10 g/100 ml), Paclitaxel injection (30 mg/5 ml) and normal saline
MDA-MB-435 human breast cancer: inoculated in BALB/C nude mice (SPF grade), 18-20 g, female
Tumor blocks of well-grown MDA-MB-435 cancer were homogenized in normal saline to obtain cell suspensions in the concentration of 1-2×10^7 cells/ml. Each nude mouse was inoculated with 0.2 ml of the suspension at the right axilla subcutaneously, and the mice were grouped randomly. The administration began from the 7th day after the inoculation. 18 Days after the inoculation, the mice were sacrificed. Tumor blocks were taken out and weighed. Differences of tumor weight between each experimental group and the control group were compared, and tumor inhibition rates and Q values were calculated.

SMILES: CC(=O)O[C@H]1C(=O)[C@@]2(C)[C@H]([C@H](OC(=O)c3ccccc3)[C@]3(O)C[C@H](OC(=O)[C@H](O)[C@@H](NC(=O)c4ccccc4)c4ccccc4)C(C)=C1C3(C)C)[C@]1(OC(C)=O)CO[C@@H]1C[C@@H]2O [Taxol, paclitaxel]
- Weight of tumor x ± SD: 1.01 ± 0.33 g
